Experimental data taken from publication PMC4854767 (2016).

The chains behind the UniProt entries cited, without tags or fusion partners.
UniProt P03372, whole entry: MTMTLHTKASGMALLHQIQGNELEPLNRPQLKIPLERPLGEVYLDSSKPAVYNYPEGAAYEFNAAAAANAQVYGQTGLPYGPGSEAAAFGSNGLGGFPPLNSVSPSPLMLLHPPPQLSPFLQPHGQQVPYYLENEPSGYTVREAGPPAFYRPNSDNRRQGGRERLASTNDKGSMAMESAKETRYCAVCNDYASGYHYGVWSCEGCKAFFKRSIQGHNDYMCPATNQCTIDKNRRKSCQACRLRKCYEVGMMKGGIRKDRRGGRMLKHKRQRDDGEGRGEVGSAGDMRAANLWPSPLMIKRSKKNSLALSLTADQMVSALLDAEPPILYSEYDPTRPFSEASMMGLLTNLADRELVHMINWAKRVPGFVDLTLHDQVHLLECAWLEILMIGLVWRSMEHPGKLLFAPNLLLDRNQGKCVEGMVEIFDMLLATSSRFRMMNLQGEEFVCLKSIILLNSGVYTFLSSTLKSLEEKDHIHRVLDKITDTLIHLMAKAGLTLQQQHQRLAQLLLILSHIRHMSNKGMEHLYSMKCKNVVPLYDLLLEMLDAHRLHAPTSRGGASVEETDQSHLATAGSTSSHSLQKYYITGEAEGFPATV

Assays:
ER = ER (Homo sapiens, UniProt P03372); assay: Duration of ER inhibition in MCF-7 tumors by fulv clinical formulation; conditions: 5 mg/wk s.c., data not shown
MCF-7 tumors = assay: IHC for geminin and Ki67 in MCF-7 tumors; conditions: single-agent fulv; baseline 52.1%

duration of ER inhibition in MCF-7 tumors (ER): ≥ 8 days
SMILES: C[C@]12CC[C@@H]3c4ccc(O)cc4C[C@@H](CCCCCCCCC[S+]([O-])CCCC(F)(F)C(F)(F)F)[C@H]3[C@@H]1CC[C@@H]2O (some centres unmarked) [fulv]
geminin/Ki67 ratio (tumor cell proliferation) (MCF-7 tumors): 34.9%
